Data as given in patent publication US6207701A, “Urokinase inhibitors” (Abbott Laboratories, priority 2000, dated 2001).

Biological target: T1, urokinase enzyme Abbokinase (Homo sapiens, UniProt P00749)
T1 construct: purchased Abbott Laboratories, Abbott Park, Ill
Test: Determination of Urokinase Inhibition (chromogenic substrate S-2444)
Assay type: biochemical
Protocol: Distributor of Chromogenix) at 200 μM. […] Four concentrations were chosen, then 5 μl of each were diluted to a total assay volume of 200 μl. […] Several vials were reconstituted as directed on the vial, aliquoted and stored frozen. The enzyme was further diluted in assay buffer and 10 μl was used in the assay. Enzyme concentration in the assay was 2-3 nM. […] The Spectromax® calculated the reaction rates which were used to calculate percent inhibition of the compounds of this invention versus the reaction rate of the enzyme in the absence of any inhibitor. The Ki 's of the inhibitors were calculated from the percent inhibition and previously established Km.

Compound: N=C(N)c1cc2c(Nc3ncccn3)cccc2s1 [Example 1, 4-(2-pyrimidinylamino)-1-benzothiophene-2-carboximidamide, trifluoroacetic acid salt]
- IC50: 122 nM

Where a name gives a salt, the structure may show the parent alone.
